Patent US6375945B1, “Adjuvant compositions for vaccines” (SmithKline Beecham Biologicals s.a., priority 1997, dated 2002)

Experiment: Enhancement of the effect of the QS21/MPL adjuvant by other cytokines

Substance: IL-2: cytokine
- enhancement of the effect of the QS21/MPL adjuvant: unable to enhance
